Experimental data taken from patent US20200138840A1, “PHARMACEUTICAL COMPOSITION AND TUMOR IMMUNOACTIVITY PROMOTER” (SENTAN Pharma inc., priority 2017, published 2020).

Assay: Side effects in Example 3: body weight, meals, blood glucose, serological profiles, liver weight
Assay type: in vivo, nude mice
Conditions: day 21; 2DG 100 mg/kg/day intraperitoneally every day
Procedure: Nude mice subcutaneously transplanted with Huh-7 cells, prepared in the same manner as in Example 1, were divided in the following six groups.
(i) 2DG group: 100 mg/kg/day of the 100 mg/mL 2DG solution was administered into the jugular vein once a week.
(j) 2DG-PLGA group: 2DG-PLGA was administered into the jugular vein once a week.
(k) 2DG intraperitoneal injection group: 100 mg/kg/day of the 2DG solution was administered intraperitoneally every day.
(l) Sorafenib+PLGA group: 5 mg/kg/day of the sorafenib solution was administered orally every day, using a sonde, and PLGA was administered into the jugular vein once a week. […]
The dose of 2DG administered in the groups (i) and (k), which is 100 mg/kg/day, substantially corresponds to a single dose of 2DG per mouse (calculated based on an average body weight of 25 g) of about 2.5 mg. […]
In each of the groups, the tumor volume and the body weight of the mice were measured in the same manner as in Example 1, and the average amount of meals taken per day was calculated. The blood glucose level of the mice in the 2DG-PLGA group was measured on day 14 after the start of administration, in the same manner as in Example 1. Twenty-one days after the start of administration, the tumors were observed, and the serological profiles and the liver weight were measured, in the same manner as in Example 1.

## O=CC[C@@H](O)[C@H](O)[C@H](O)CO [2DG, 2-Deoxy-D-glucose]
  Neutral fat: 85.2 ± 37.5 mg/dL
